# Bioassay records from PubChem BioAssay.
# In the library only some 1% were active in any assay of this set; here they are far more common.
# Yeast UUG start: yeast start codon fidelity modulation. S. cerevisiae UUG-firefly luciferase reporter, luminescence/redox ratio. activity score, % at 18.7 µM. 0.13% of 350,000 active;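 active = replicate mean at a twofold rise or more, about +100% in these data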;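 also: firefly luciferase made from a UUG start codon reports start codon fidelity; reporter light over untreated wells divided by growth signal over untreated wells; some hits fall short of that in this replicate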
# CDK5 inh: blocks human CDK5/p35 kinase activity; Q00535+Q15078; Recombinant CDK5/p35, ADP-Glo luminescence, 60 min; inhibition, % at 10 µM; hit rate 0.01% among 330,000;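 active = highest replicate inhibition of at least 50% and at least 75% of replicates reaching 50%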;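 note: plate controls were DMSO neutral control for no effect and GW8510 at 10 µM for full effect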
# C2C12 statin: suppressors of simvastatin-induced myotoxicity in C2C12 myotubes | ATP luminescence, 48 h; scaled: DMSO 0, geranylgeraniol control 100 | rescue of ATP level, % at 7.49 µM | hit rate 0.78% among 330,000;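 active = mean ATP rescue above about 67%, or every replicate alone reaching that limit, limit read from the data, passing the limit was not always enough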;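 note: myotubes were challenged with 10 µM simvastatin during compound exposure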
# Cneo AK release: Cryptococcus neoformans lysis via adenylate kinase release | C. neoformans lysis, adenylate kinase release luminescence, 4 h; normalised: neutral wells 0, clomiphene wells 100 | lysis activity, % at 15 µM | hit rate 0.2% among 360,000;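 active = mean lysis activity across replicates of at least 80%, whatever share of replicates individually reach that level; inactive = mean lysis activity below 80%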
#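 Schedule: static 4 h at 37 °C with compound, 1 h detection; system: C. neoformans cells; benchmarks: Clomiphene as positive control; buffer or medium: fresh YPD medium; measure: luminescence rise reflecting yeast cell lysis; measured by: luminescent adenylate kinase detection reagent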
# Rtt109 HAT inh: C. albicans Rtt109 histone acetyltransferase inhibition; Q5AAJ8; purified Rtt109/Vps75, ThioGlo CoA-SH fluorescence, 4 h; inhibition, % at 34.9 µM; hit rate 0.16% among 330,000; AID 540336;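 active = inhibition of at least 50% in every replicate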
# Active calls of the source: *; x = no result given.
Structure	Yeast UUG start	CDK5 inh	C2C12 statin	Cneo AK release	Rtt109 HAT inh
O=C(Nc1ccccc1)N[C@H]1CC[C@H](CCNC(=O)c2ccccc2F)O[C@@H]1CO	0	x	4	0	x
O=C(N[C@H]1CC[C@H](CCn2cc(-c3ccccn3)nn2)O[C@H]1CO)c1ccc(F)cc1	-2	x	0	83*	x
O=C(NCC[C@H]1CC[C@H](NC(=O)c2cccnc2)[C@H](CO)O1)Nc1ccc(F)cc1	203*	x	6	0	x
O=C(C[C@@H]1CC[C@@H](NC(=O)Nc2ccc(C(F)(F)F)cc2)[C@@H](CO)O1)NCc1cccc(F)c1	3	x	-5	71	x
O=C(Nc1ccccc1)N[C@@H]1CC[C@@H](CCNC(=O)c2ccccc2F)O[C@H]1CO	5	x	-2	107*	x
O=C(NCC[C@H]1CC[C@@H](NC(=O)c2cccnc2)[C@@H](CO)O1)Nc1ccc(F)cc1	12	x	-2	66	x
C[C@H](CO)N1C[C@H](C)[C@@H](CN(C)CC2CC2)OCCCC[C@H](C)Oc2ccc(NS(=O)(=O)c3ccc(F)cc3)cc2C1=O	x	x	x	4	x
O=C(CN1CCOCC1)NCC[C@@H]1CC[C@@H](NC(=O)c2ccccc2F)[C@H](CO)O1	4	x	4	17	x
CO[C@@H]1CN(C)C(=O)c2cc(NC(=O)C3CC3)ccc2OC[C@@H](C)N(C(=O)c2ccccc2F)C[C@H]1C	x	x	4	-1	x
CCCNC(=O)C[C@@H]1CC[C@H]2[C@H](COc3ccc(NC(=O)c4cccc(Cl)c4)cc3C(=O)N2C)O1	x	x	9	x	x
C[C@H](CO)N1C[C@H](C)[C@H](CN(C)Cc2cccc3c2OCCCO3)OCc2cn(nn2)CCCC1=O	x	x	-11	-1	x
O=C(C[C@@H]1CC[C@@H]2[C@H](COC[C@H](O)CN2C(=O)c2ccccn2)O1)NC1CCC1	x	x	-6	1	x
C[C@@H]1CCCCO[C@H](CN(C)C(=O)NC2CCCCC2)[C@@H](C)CN([C@@H](C)CO)C(=O)c2cc(NS(=O)(=O)c3cn(C)cn3)ccc2O1	0	x	10	0	x
C[C@H](CO)N1C[C@H](C)[C@@H](CN(C)C)OCCCC[C@H](C)Oc2ccc(NS(=O)(=O)c3cn(C)cn3)cc2C1=O	x	x	x	0	x
C[C@@H]1CN([C@@H](C)CO)C(=O)c2cc(NS(=O)(=O)c3cn(C)cn3)ccc2O[C@@H](C)CCCCO[C@H]1CN(C)C	x	x	x	98*	x
C[C@@H]1CCCCO[C@@H](CN(C)C(=O)NC2CCCCC2)[C@H](C)CN([C@@H](C)CO)C(=O)c2cc(NS(=O)(=O)c3cn(C)cn3)ccc2O1	-2	x	2	101*	x
CO[C@@H]1CN(C)C(=O)c2cc(NC(=O)c3ccccc3)ccc2OC[C@H](C)N(C(=O)C2CC2)C[C@H]1C	6	x	1	0	x
O=C(C[C@H]1CC[C@@H]2[C@H](COC[C@H](O)CN2C(=O)Nc2ccccc2)O1)NCCc1ccncc1	-11	x	-9	-2	x
COc1ccc(/C=C2\CN(Cc3ccccc3)C/C(=C\c3ccc(OC)c(O)c3)C2=O)cc1O	-5	0	99*	0	15
Cc1ccc(S(=O)(=O)N(C)C[C@@H]2Oc3ccc(NC(=O)Nc4ccc5c(c4)OCO5)cc3CC(=O)N([C@H](C)CO)C[C@@H]2C)cc1	4	x	-218	4	x

# Fetched one by one from above (3):
Structure	Yeast UUG start	CDK5 inh	C2C12 statin	Cneo AK release	Rtt109 HAT inh
C[C@@H]1CCCCO[C@@H](CN(C)C(=O)NC2CCCCC2)[C@H](C)CN([C@@H](C)CO)C(=O)c2cc(NS(=O)(=O)c3cn(C)cn3)ccc2O1	-2	x	2	101*	x
O=C(Nc1ccccc1)N[C@@H]1CC[C@@H](CCNC(=O)c2ccccc2F)O[C@H]1CO	5	x	-2	107*	x
O=C(C[C@@H]1CC[C@@H](NC(=O)Nc2ccc(C(F)(F)F)cc2)[C@@H](CO)O1)NCc1cccc(F)c1	3	x	-5	71	x

# Additional records follow.
Structure	Yeast UUG start	CDK5 inh	C2C12 statin	Cneo AK release	Rtt109 HAT inh
O=C(NCc1c(O)ccc2ccccc12)c1ccccc1	-5	0	13	-1	-3
O=C(O)Cc1c(O)ccc2ccccc12	-16	-1	121*	0	-3
COc1cc(C(=O)N(CCc2ccccc2)C2=CC3CCC(C2)N3C)cc(OC)c1OC (configuration not stated)	0	-1	91*	4	-15
C[C@H](CO)N1C[C@H](C)[C@H](CN(C)C(=O)C2CCCCC2)Oc2ncc(-c3ccncc3)cc2C1=O	-8	x	-3	-1	x
COc1ccc(NC(=O)N(C)C[C@H]2Oc3ccc(NC(=O)NC4CCCCC4)cc3CC(=O)N([C@H](C)CO)C[C@H]2C)cc1	-6	x	8	1	x
O=C(Nc1ccc2c(c1)[C@H]1C[C@@H](CC(=O)N3CCOCC3)O[C@@H](CO)[C@H]1O2)NC1CCCCC1	-1	x	3	2	x
CC(C)C(=O)N(c1ccc2oc(=O)sc2c1)S(=O)(=O)c1ccccc1	-15	2	106*	4	14
COc1ccc(S(=O)(=O)N(C(=O)C(C)C)c2ccc3oc(=O)sc3c2)cc1	-9	-1	16	-6	5
